Assay results: patent US12071411B2, “Inhibitors of HIF-2α and methods of use thereof” (ARCUS BIOSCIENCES, INC., priority 2021, dated 2024)
Read-outs that look alike come from different tables or passages of the source.

Protein sequences, listed by entry. Tags and fused reporters are not part of them. Residues count along the entry.
UniProt Q99814, 240-350: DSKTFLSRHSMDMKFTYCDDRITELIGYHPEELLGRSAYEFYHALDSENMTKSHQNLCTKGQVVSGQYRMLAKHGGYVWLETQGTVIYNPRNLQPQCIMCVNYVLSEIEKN

Assays:
HIF-2α [1] = target: T1, HIF-2α (Homo sapiens, UniProt Q99814); assay: HIF-2α Luciferase Reporter Assay (serum), HRE-luciferase 786-0 cells in 100% human serum; format: cell-based
Protocol: (§1) Generation of HIF-2α Luciferase 786-0 Cell Line:
(§2) Stable cell lines were generated by transducing 786-0 cells (ATCC, CRL-1932) with Cignal Lenti HIF Luc Reporter lentivirus (CLS-007L, Qiagen) according to the manufacturer's guidelines. In brief, 0.3×10^6 786-0 cells were transduced with lentivirus at a multiplicity of infection (MOI) of 25 for 24 hours. After transduction, cells were replenished with fresh RPMI 1640 Medium (Cat. No. 11875085, Thermo Fisher) supplemented with 10% FBS (Cat. No. A3160502, Gibco), 2 mM GlutaMAX™ (Cat. No. 35050-061, Invitrogen) and 100 units of penicillin and 100 μg of streptomycin/mL (Cat. No 15070063, Thermo Fisher) for another 24 hours. Antibiotic selection was performed in cell media containing 4 μg/mL of puromycin. After 7 days of antibiotic selection, stable pools of surviving cells were expanded and used in a luciferase reporter assay.
HIF-2α Luciferase Reporter Assay (Serum):
An HRE-luciferase stable reporter 786-0 cell line was maintained in active culture using RPMI 1640 (GIBCO) media supplemented with 1% penicillin-streptomycin, 1% GlutaMAX™, 10% FBS-One Shot (GIBCO) and 4 ug/ml of puromycin (Invitrogen). On the day of the assay, cells were harvested using StemPro™ Accutase™ cell dissociation reagent (GIBCO) and resuspended at 1.5 million cells per milliliter in Opti-MEM™ (GIBCO). 20 ul/well of the resuspended cells were dispensed into a 384 white tissue culture-treated microplate (Corning) and allowed to incubate at 37° C., 5% CO2 for 3 hours. Compounds were prepared by dispensing 0.8 ul of compound in 100% DMSO into a Greiner plate containing 40 ul/well of 100% human serum (Bioreclamation IVT). After 3 hours, media was removed via centrifugation at 500 RPM for 30 seconds and 30 ul/well of compound diluted in human serum was added. The plate was incubated overnight at 37° C., 5% CO2. […] 40 ul/well of ONE-Glo™ reagent was added and allowed to incubate for 10 minutes before reading the luminescence signal on the Envision (PerkinElmer). Data was analyzed using 4-parameter logistic equation to generate IC50.

[2] = target: T2, Biotin tagged HIF-2α protein containing PAS-B domain (240-350) (Homo sapiens, UniProt Q99814); assay: HIF-2α Scintillation Proximity Assay (SPA) binding assay; settings: 50 nM HIF-2α protein, 25 nM 3H-tracer, 2% DMSO
T2 construct: Biotin tagged HIF-2α protein containing PAS-B domain (240-350) was prepared and purified in-house; made in house
Protocol: HIF-2α Scintillation Proximity Assay (SPA) Binding Assay:
Tritium labeled compound N-(3-chlorophenyl)-4-nitro-2,1,3-benzoxadiazol-5-amine was obtained from American Radiolabeled Chemicals Inc. and copper chelate PVT SPA beads were from PerkinElmer (Cat #RPNQ0009). Biotin tagged HIF-2α protein containing PAS-B domain (240-350) was prepared and purified in-house.
Compounds solubilized in DMSO were dispensed into a white 384-well polystyrene non-binding flat clear bottom plate (Greiner Bio-One, Cat #781903) using an HP D300 dispenser. Ten microliters of biotinylated HIF-2α protein in buffer (25 mM Tris-HCl, pH 7.4, 150 mM NaCl, 0.15% BSA and 0.001% Tween 20) was added to the compound wells and allowed to incubate for 1 hour at room temperature. Ten microliters of SPA bead mix were added to the wells and incubated for an additional 45 minutes, followed by 10 ul of ^3H-tracer solution. Final assay conditions comprised 50 nM HIF-2α protein, 25 nM radiolabeled tracer and 3 ug beads per well with compounds in 2% DMSO. The plate was read using a MicroBeta Microplate Counter (PerkinElmer) for luminescence detection. The IC50 values of the test compounds were determined from compound dose response curves fitted using a standard four parameter fit equation and are reported in Table 2.

HIF-2α [3] = target: T1, HIF-2α; assay: HIF-2α Luciferase Reporter Assay (serum free) in HIF-Luc-786-0 cells; format: cell-based
Protocol: as §1
as §2, with “Antibiotic selection was performed in cell media containing 4 μg/mL of puromycin. After 7 days of antibiotic selection, stable pools of surviving cells were expanded and used in a luciferase reporter assay.” left out
On day one, 20 uL of HIF-Luc-786-0 cells in Opti-MEM™ (Cat. No. 31985088, Thermo Fisher) were seeded into each well of a 384 well white opaque plate (Corning 3570) and incubated at 37° C. and 5% CO2. […] After 20 hours incubation at 37° C. and 5% CO2, luciferase activity was determined using ONE-Glo™ Luciferase Assay Reagent (E6110, Promega) following the manufacture's recommended procedure. Briefly, 40 uL of ONE-Glo™ luciferase reagents were added to each well and luciferase signals were measured using an Envision 2102 Multilabel Reader. Percentage maximum activity in each test well was calculated based on DMSO (maximum activity) and no cell control wells (baseline activity). […]

Compound | Serum Shift (approximate) (HIF-2α [1]; ratio of IC50 in 100% serum to IC50 in serum free conditions, approximate) | IC50 (HIF-2α [1]) [nM] | Serum Shift (approximate) (HIF-2α [1]) | IC50 [2] [nM] | IC50 (HIF-2α [3]) [nM]
CO[C@H](CCn1nc(C(F)(F)F)c2c1CCC(F)(F)[C@H]2O)C(F)(F)F [Example 12, (4S)-5,5-difluoro-1-[(3R)-4,4,4-trifluoro-3-methoxybutyl]-3-(trifluoromethyl)-6,7-dihydro-4H-indazol-4-ol] | 5 | – | – | – | –
COC(CCn1nc(C(F)(F)F)c2c1CCC(F)(F)[C@H]2O)C(F)(F)F (stereo partly drawn) [Example 17, (4S)-5,5-difluoro-1-(4,4,4-trifluoro-3-methoxybutyl)-3-(trifluoromethyl)-6,7-dihydro-4H-indazol-4-ol] | – | 100 to 1000 | 5 | < 100 | < 100
